This note sets out measurements from ChEMBL document CHEMBL1158463 (J Med Chem, 2009).

By UniProt entry, the sequences of proteins in these tests, tags left out. Where a name states a change or a piece, a line headed by the entry shows the natural chain unless it says otherwise. Residues count along the entry.
UniProt P10632, whole entry, looked up: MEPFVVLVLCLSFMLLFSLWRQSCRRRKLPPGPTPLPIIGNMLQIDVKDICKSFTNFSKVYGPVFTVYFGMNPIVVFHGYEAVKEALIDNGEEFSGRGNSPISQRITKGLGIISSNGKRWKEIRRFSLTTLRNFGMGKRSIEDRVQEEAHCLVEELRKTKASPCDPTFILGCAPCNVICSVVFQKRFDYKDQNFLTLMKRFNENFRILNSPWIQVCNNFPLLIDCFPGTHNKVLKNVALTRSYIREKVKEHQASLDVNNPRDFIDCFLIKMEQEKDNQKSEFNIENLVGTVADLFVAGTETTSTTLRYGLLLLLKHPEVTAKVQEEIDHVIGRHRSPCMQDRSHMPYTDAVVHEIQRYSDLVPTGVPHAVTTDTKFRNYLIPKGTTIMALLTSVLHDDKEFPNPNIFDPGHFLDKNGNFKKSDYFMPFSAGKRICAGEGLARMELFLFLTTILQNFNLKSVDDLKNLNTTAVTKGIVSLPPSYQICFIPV
UniProt P05177, 2-516 limits assumed: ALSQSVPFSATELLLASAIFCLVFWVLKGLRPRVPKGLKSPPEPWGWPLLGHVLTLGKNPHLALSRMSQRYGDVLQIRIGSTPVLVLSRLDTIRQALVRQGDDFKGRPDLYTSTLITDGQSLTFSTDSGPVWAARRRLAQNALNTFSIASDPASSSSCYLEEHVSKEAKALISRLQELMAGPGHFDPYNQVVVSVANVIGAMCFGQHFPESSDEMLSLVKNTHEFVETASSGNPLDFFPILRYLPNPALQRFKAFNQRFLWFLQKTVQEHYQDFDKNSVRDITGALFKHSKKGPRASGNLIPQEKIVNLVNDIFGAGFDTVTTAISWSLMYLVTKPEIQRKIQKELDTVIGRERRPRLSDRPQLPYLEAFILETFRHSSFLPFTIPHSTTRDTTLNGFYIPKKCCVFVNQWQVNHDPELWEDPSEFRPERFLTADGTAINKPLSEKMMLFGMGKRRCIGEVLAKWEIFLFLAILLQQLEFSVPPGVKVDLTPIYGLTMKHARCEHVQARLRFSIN
UniProt P08684, 2-503 limits assumed: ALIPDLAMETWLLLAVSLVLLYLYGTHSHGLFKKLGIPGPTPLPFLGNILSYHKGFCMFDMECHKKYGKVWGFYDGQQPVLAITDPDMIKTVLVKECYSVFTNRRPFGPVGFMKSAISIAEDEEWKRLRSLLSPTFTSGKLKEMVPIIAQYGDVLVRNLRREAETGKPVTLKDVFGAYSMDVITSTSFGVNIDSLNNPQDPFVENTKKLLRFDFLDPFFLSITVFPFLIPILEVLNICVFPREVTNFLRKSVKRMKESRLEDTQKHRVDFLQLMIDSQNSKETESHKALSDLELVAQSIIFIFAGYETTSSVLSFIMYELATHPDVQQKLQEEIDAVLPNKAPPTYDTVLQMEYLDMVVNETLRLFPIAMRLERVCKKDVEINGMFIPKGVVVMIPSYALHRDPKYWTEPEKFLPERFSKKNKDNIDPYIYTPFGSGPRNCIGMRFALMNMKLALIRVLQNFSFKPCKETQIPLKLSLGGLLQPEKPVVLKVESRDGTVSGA
UniProt P11712, whole entry, looked up: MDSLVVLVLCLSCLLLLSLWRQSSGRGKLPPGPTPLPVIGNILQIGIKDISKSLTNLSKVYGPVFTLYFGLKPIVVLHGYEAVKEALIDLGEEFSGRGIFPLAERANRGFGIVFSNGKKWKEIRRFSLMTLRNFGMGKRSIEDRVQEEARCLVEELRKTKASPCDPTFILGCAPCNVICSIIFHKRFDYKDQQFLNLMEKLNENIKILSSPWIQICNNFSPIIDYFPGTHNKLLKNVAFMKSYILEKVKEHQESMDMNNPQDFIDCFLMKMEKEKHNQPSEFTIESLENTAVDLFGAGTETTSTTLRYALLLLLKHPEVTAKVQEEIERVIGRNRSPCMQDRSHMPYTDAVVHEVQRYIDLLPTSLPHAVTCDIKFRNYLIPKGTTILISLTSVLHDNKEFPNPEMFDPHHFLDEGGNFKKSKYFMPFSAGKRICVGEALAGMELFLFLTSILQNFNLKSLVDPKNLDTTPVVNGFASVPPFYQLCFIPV
UniProt Q12809: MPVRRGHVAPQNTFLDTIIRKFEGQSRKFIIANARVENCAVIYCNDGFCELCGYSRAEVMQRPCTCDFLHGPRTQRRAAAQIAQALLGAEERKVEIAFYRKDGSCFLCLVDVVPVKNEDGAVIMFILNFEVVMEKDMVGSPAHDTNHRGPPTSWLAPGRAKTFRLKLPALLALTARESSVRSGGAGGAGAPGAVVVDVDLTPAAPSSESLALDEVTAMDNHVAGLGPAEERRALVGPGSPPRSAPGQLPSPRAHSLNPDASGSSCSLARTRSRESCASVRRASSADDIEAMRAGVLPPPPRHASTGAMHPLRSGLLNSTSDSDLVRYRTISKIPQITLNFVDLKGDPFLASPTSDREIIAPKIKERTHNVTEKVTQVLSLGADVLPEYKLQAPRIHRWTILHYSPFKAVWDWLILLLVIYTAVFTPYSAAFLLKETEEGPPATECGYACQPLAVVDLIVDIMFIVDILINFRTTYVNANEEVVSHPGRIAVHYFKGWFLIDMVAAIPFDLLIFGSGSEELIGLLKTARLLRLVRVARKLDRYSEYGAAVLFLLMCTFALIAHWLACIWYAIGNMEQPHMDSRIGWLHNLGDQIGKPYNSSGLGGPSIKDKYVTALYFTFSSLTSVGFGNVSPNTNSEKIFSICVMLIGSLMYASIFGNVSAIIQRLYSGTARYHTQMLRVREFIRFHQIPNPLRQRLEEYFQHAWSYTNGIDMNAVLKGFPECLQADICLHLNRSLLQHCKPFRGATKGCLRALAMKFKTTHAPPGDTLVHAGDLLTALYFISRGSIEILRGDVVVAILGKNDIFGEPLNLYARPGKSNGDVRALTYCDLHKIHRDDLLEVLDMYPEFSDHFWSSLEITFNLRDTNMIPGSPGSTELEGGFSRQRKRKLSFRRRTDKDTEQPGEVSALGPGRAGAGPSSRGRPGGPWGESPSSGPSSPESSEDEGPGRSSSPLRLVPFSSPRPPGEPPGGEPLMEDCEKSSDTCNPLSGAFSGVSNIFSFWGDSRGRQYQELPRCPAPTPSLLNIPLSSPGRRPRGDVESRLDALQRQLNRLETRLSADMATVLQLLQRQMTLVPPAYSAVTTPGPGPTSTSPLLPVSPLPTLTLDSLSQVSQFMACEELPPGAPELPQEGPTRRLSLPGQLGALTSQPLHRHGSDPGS
UniProt P10635, whole entry, looked up: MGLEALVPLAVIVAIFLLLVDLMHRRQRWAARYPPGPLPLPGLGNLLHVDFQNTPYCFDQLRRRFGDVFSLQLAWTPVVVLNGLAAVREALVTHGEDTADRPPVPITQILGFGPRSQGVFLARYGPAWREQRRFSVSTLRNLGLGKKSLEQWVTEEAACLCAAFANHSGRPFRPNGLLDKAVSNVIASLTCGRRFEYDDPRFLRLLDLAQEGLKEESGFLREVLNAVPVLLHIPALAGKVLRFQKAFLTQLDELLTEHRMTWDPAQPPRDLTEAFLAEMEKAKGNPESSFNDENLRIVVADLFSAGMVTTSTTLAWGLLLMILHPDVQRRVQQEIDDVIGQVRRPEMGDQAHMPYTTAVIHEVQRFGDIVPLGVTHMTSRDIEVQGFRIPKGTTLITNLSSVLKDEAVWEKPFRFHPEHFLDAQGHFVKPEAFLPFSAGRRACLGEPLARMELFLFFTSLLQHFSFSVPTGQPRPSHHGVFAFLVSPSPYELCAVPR

Data set [1] can be described thus: Ratio of drug level in brain to plasma in P-gp deficient CF1 mouse at 0.3 mg/kg, sc after 1 hr. The following applies: strain CF1, Brain/Plasma.
The subject of data set [2] is Rattus norvegicus. Nature of the data set: Half life in fasted Sprague-Dawley rat at 1 mg/kg, iv. Conditions: in vivo.
The nature of data set [3]: Ratio of drug level in brain to plasma in CD1 (ICR) mouse at 30 mg/kg, po after 3 hrs. The following applies: strain CD1 (ICR).
Data set [4] relates to Brain. Nature of the data set: Drug level in P-gp deficient CF1 mouse brain at 0.3 mg/kg, sc after 1 hr assessed per gram of brain. Conditions: in vivo, strain CF1, Brain.
The test system of data set [5] is Rattus norvegicus. As to the kind of experiment: Oral bioavailability in fasted Sprague-Dawley rat at 3 mg/kg. The following applies: in vivo.
Data set [6] concerns Brain. Nature of the data set: Drug level in CD1 (ICR) mouse brain at 30 mg/kg, po after 3 hrs assessed per gram of brain. Conditions: in vivo, strain CD1 (ICR).
Data set [7] has as its system Mus musculus. Nature of the data set: Antagonist activity at ORL1 receptor in CD1 (ICR) mouse assessed as reversal of WO03/10168-induced locomotor activity at 30 mg/kg, po administered 30 mins prior to WO03/10168 challenge. Also noted: scale not given: the % may be the effect or the level left.
Data set [8] deals with Rattus norvegicus. As to the kind of experiment: Volume of distribution at steady state in fasted Sprague-Dawley rat at 1 mg/kg, iv. Conditions: in vivo.
Data set [9] relates to Mus musculus. Nature of the data set: Plasma concentration in P-gp deficient CF1 mouse at 0.3 mg/kg, sc after 1 hr. The following applies: read-out: Cp, in vivo, strain CF1, Plasma.
For data set [10], the system named is Mus musculus. As to the kind of experiment: Plasma concentration in CD1 (ICR) mouse at 30 mg/kg, po after 3 hrs. The following applies: read-out: Cp, in vivo, strain CD1 (ICR).
Data set [11] concerns the target Cytochrome P450 2C8 (Homo sapiens, UniProt P10632). Nature of the data set: Inhibition of CYP2C8 in human liver microsomes assessed as inhibition of paclitaxel 6-alpha-hydroxylation.
The target of data set [12] is Cytochrome P450 1A2 (Homo sapiens, UniProt P05177). As to the kind of experiment: Inhibition of CYP1A2 in human liver microsomes assessed as inhibition of acetophenacetin odeethylation.
Data set [13] has as its target Cytochrome P450 3A4 (Homo sapiens, UniProt P08684). Nature of the data set: Inhibition of CYP3A4 in human liver microsomes assessed as inhibition of testosterone 6-beta-hydroxylation.
Data set [14] deals with Cytochrome P450 2C9 (Homo sapiens, UniProt P11712). Nature of the data set: Inhibition of CYP2C9 in human liver microsomes assessed as inhibition of diclofenac 4'-hydroxylation.
Data set [15] has as its target Voltage-gated inwardly rectifying potassium channel KCNH2 (Homo sapiens, UniProt Q12809). As to the kind of experiment: Displacement of radiolabeled MK-499 from human ERG expressed in HEK293 cells coexpressing IKr channel protein.
Data set [16] has as its target Cytochrome P450 2D6 (Homo sapiens, UniProt P10635). Nature of the data set: Inhibition of CYP2D6 in human liver microsomes assessed as inhibition of dextrometorphan O-demethylation.
The subject of data set [17] is Liver microsomes. As to the kind of experiment: Metabolic stability in human liver microsomes assessed as compound remaining at 1 uM after 30 mins. The following applies: 0.5 h.
The subject of data set [18] is Liver microsomes. Nature of the data set: Metabolic stability in rat liver microsomes assessed as compound remaining at 1 uM after 30 mins. The following applies: 0.5 h.
Data set [19] deals with Canis familiaris. Nature of the data set: Toxicity in dog assessed as change in cardiovascular variables up to 5 mg/kg by telemetry study. Conditions: in vivo, Heart.
Data set [20] concerns Rattus norvegicus. Nature of the data set: Bioavailability in fasted Sprague-Dawley rat at 3 mg/kg, iv and 10 mg/kg, po. Conditions: in vivo.
The subject of data set [21] is LLC-PK1. As to the kind of experiment: Ratio of transcellular transport from apical to basolateral side over basolateral to apical side in pig LLC-PK1 cells expressing human L-MDR1 at 1 uM after 3 hrs. Conditions: llc-pk1, 3 h.
Data set [22] relates to LLC-PK1. As to the kind of experiment: Ratio of transcellular transport from apical to basolateral side over basolateral to apical side in pig LLC-PK1 cells expressing mouse L-mdr1a at 1 uM after 3 hrs. Conditions: llc-pk1, 3 h.

For `Cl.O=c1n(C[C@H](O)CO)c2ccccc2n1C1CCN(C[C@H]2[C@H]3CC[C@H](C3)C23CC3)CC1`, the values for the BPR in [1] and in data set [3] were 5.6 and 0.79, respectively. The t1/2 in [2] turned out to be 1.4 h. The Drug uptake in [4] amounted to 0.42 nmol/g; in data set [6] it was 0.28 nmol/g. The compound also yielded a bioavailability in [5] of 17%. For the same compound, the Activity in data set [7] is 77%. For the same compound, the Vdss in data set [8] came out at 3.7 L/kg.

Regarding `O=c1n(C(CO)CO)c2ccccc2n1C1CCN(C[C@H]2[C@H]3CC[C@H](C3)C23CC3)CC1`, the concentration in [9] was found to be 0.1 nM; in data set [10] it was 0.54 nM.

Consider `O=c1n(C[C@@H](O)CO)c2ccccc2n1C1CCN(C[C@H]2[C@H]3CC[C@H](C3)C23CC3)CC1`, for which the IC50 in data set [11] is over 100 µM; in data set [12] it was over 100 µM; in [13], over 100 µM; in data set [14], over 100 µM; in data set [15] it was 25 µM; in data set [16] it was 16 µM. The concentration in data set [9] came to 0.087 nM; in data set [10] it was 0.19 nM.

Take `CCn1c(=O)n([C@@H]2CCN(CC3CCCCCCC3)C[C@H]2CO)c2ccccc21`: the Stability in [17] and in [18] was 0% in each case. Further, the Activity entry in [19] is “Non-toxic”. This compound also gave a bioavailability in data set [20] of 7%.

For `Cl.O=c1n(C[C@@H](O)CO)c2ccccc2n1C1CCN(C[C@H]2[C@H]3CC[C@H](C3)C23CC3)CC1` [listing 1 of 2 here], the BPR came out at 6.4 in [1] and 1 in data set [3]. Besides, in [2], the t1/2 came out at 1.1 h. For the same compound, the Drug uptake is 0.56 nmol/g in [4] and 0.19 nmol/g in data set [6]. This compound showed a bioavailability in data set [5] of 33%. The same compound came in with a Vdss in [8] of 4.8 L/kg.

`O=c1n(C[C@H](O)CO)c2ccccc2n1C1CCN(C[C@H]2[C@H]3CC[C@H](C3)C23CC3)CC1`: the results for the concentration in [9] and in data set [10] were 0.078 nM and 0.35 nM, respectively.

Turning to `Cl.O=c1n(C(CO)CO)c2ccccc2n1C1CCN(C[C@H]2[C@H]3CC[C@H](C3)C23CC3)CC1`, the BPR was determined as 4.1 in data set [1] and 0.48 in data set [3]. In data set [2], this compound came in with a t1/2 of 1.3 h. Also, the Ratio amounted to 2.8 in [21] and 13.2 in data set [22]. The Stability in [17] worked out at 45%; in data set [18], 74%. Moreover, the results for the Drug uptake in [4] and in [6] were 0.43 nmol/g and 0.25 nmol/g, respectively. In addition, the bioavailability in data set [5] stood at 22%. In addition, in data set [7], the Activity amounted to 69%. In data set [8], this compound came in with a Vdss of 5.3 L/kg.

With `Cl.O=c1n(C[C@@H](O)CO)c2ccccc2n1C1CCN(C[C@H]2[C@H]3CC[C@H](C3)C23CC3)CC1` [listing 2 of 2 here], in data set [7], the Activity stood at 85%.
